Measurements as given in ChEMBL document CHEMBL4004863, “Design, synthesis, biological evaluation and X-ray structural studies of potent human dihydroorotate dehydrogenase inhibitors based on hydroxylated azole scaffolds” (Eur J Med Chem, 2017).

Test system: Jurkat
Assay: Antiproliferative activity against human Jurkat T cells assessed as DNA content after 72 hrs by Hoechst 33258 dye based fluorometric method
Assay type: functional, cell-based
How it was run: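 Jurkat T cells grown in X-VIVO 15 with 10% FBS and antibiotic-antimycotic at 37 °C, 5% CO2, passages 5–10, mycoplasma-free, STR-authenticated. IC50 came from nonlinear regression, mean ± SE of three experiments. Uridine, where added, was at 100 μM.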

- IC50: 43.2 µM
Compound: C/C(O)=C(\C#N)C(=O)Nc1ccc(C(F)(F)F)cc1 [TERIFLUNOMIDE]
